In BindingDB's records for PubMed 11714875 (Vrije Universiteit, 2001) one finds Ki data, which are given here for two compounds.

By UniProt entry, the sequences of proteins in these tests, tags left out. Where a name states a change or a piece, a line headed by the entry shows the natural chain unless it says otherwise.
UniProt Q5PPG3, whole entry: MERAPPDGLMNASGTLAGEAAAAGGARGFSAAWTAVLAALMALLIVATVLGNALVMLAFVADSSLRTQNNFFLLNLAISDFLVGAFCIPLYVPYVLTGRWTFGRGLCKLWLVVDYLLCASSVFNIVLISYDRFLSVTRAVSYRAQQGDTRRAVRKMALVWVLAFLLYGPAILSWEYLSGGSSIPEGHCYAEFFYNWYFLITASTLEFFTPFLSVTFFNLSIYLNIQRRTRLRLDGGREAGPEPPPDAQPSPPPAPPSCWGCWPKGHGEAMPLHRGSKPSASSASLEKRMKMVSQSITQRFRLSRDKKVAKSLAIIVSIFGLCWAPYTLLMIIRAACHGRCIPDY
UniProt Q9Y5N1: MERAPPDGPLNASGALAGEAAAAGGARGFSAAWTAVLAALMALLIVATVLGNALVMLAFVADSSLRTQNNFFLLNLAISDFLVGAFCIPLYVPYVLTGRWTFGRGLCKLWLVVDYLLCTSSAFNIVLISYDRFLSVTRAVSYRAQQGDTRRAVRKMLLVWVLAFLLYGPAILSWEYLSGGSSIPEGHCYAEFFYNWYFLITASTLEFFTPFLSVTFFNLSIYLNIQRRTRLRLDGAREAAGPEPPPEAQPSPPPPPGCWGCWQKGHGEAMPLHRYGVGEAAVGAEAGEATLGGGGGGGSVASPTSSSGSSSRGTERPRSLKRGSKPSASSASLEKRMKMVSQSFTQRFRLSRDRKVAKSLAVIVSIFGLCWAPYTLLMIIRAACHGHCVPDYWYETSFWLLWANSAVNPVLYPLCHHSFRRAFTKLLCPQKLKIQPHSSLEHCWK

One may read the Ki as the equilibrium dissociation constant of an inhibitor or competing ligand from its target. High values mean a looser hold on the target, low ones a stronger hold on the target.

In one assay the target is Hrh3 protein (Rattus norvegicus, UniProt Q5PPG3).
The target in the next assay is Histamine H3 receptor (Homo sapiens, UniProt Q9Y5N1).

With `NC(=NCc1ccc(Cl)cc1)SCCCc1cnc[nH]1` [VUF 9153], the figures for the Ki at Hrh3 protein and on Histamine H3 receptor were 0.87 nM and 3.8 nM, respectively. `NCCCCCc1c[nH]cn1` [5-(1H-imidazol-5-yl)pentan-1-amine] registered a Ki on Hrh3 protein of 5.01 nM.
